# Test: Water solubility of the peptides
# Assay type: physicochemical
substance,measurement,value
Ac-Ile Cys Leu Leu Pro Leu Asp Tyr Gly Pro Cys Arg Ala Leu (ICLLPLDYGPCRAL; N-terminal acetyl; ACT_SITE (1)..(1)) [Peptide 5-Ac],water solubility compared to non-acetylated counterpart,more water soluble than their corresponding non acetylated counterparts
